Reference: patent publication US20090156614A1, “Selective androgen receptor modulators, analogs and derivatives thereof and uses thereof” (priority 2006, published 2009)
pKi: −log10 of the molar value.

The chains behind the UniProt entries cited, without tags or fusion partners.
UniProt P10275, whole entry: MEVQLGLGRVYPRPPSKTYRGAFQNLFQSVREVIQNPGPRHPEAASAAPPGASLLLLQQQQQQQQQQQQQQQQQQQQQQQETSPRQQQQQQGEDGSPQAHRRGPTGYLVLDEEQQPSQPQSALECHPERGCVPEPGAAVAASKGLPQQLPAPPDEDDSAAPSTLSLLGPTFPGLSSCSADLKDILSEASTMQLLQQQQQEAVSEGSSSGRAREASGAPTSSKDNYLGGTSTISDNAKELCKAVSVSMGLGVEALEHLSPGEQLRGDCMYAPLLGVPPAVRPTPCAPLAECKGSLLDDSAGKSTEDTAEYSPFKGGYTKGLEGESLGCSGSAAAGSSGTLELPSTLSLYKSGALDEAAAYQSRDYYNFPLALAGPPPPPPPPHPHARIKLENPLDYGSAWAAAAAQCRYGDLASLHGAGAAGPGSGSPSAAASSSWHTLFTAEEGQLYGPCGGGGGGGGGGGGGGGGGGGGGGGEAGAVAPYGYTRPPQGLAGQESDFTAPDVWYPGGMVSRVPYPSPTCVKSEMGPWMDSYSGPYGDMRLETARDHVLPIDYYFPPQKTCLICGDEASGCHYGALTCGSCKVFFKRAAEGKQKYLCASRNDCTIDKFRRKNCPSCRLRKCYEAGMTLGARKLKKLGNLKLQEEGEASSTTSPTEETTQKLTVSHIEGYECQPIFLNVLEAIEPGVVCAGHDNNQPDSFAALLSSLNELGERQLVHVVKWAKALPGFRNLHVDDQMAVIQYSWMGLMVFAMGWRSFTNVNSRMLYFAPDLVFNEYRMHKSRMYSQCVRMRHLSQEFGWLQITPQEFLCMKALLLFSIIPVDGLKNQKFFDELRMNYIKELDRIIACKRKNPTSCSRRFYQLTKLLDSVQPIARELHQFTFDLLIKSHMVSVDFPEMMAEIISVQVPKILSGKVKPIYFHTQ
UniProt P15207, whole entry S389L: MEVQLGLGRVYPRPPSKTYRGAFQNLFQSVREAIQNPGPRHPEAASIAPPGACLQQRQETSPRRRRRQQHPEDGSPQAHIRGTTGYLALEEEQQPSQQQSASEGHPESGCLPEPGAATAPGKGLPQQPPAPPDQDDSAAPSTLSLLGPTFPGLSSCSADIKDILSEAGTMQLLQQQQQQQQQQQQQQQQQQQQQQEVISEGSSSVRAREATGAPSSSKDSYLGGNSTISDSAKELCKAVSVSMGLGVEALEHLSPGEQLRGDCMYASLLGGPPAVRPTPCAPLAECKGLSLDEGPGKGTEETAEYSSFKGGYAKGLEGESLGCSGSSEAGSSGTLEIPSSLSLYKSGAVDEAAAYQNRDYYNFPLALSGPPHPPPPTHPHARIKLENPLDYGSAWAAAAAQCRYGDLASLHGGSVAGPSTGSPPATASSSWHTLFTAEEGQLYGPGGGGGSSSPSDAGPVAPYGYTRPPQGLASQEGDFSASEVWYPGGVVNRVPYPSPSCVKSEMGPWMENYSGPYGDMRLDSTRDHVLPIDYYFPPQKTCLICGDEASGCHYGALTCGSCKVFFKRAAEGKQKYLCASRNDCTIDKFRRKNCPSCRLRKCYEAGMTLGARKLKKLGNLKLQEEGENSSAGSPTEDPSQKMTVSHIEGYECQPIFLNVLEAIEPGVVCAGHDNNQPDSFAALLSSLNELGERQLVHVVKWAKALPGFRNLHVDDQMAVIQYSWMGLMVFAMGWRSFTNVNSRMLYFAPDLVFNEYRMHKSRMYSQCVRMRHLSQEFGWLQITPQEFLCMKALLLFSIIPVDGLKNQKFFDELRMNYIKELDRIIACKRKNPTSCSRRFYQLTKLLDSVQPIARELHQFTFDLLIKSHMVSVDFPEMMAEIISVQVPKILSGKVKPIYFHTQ

Tests used:
[1] = target: hAR (Homo sapiens, UniProt P10275); test: Cotransfection assay: AR-mediated transcriptional activation in CV-1 cells (luciferase reporter); type: cell-based; details: wild type AR
[2] = target: Cytosolic AR (Rattus norvegicus, UniProt P15207); test: AR competitive binding assay (3H-MIB displacement, rat ventral prostate cytosol)

For `CC(=O)c1ccc(S(=O)(=O)C[C@](C)(O)C(=O)Nc2ccc([N+](=O)[O-])c(C(F)(F)F)c2)cc1`, the “in vitro functional activity (agonist / partial agonist / antagonist)” value [1] was “agonist” and the pKi [2] was 8.03.
